Measured values as given in patent publication US4760029A, “Assay for D-1 antagonistic activity of neuroleptic drugs” (Schering Corporation, priority 1984, dated 1988).

Chains of the proteins cited; added tags and fusions are not shown.
UniProt P18901, whole entry: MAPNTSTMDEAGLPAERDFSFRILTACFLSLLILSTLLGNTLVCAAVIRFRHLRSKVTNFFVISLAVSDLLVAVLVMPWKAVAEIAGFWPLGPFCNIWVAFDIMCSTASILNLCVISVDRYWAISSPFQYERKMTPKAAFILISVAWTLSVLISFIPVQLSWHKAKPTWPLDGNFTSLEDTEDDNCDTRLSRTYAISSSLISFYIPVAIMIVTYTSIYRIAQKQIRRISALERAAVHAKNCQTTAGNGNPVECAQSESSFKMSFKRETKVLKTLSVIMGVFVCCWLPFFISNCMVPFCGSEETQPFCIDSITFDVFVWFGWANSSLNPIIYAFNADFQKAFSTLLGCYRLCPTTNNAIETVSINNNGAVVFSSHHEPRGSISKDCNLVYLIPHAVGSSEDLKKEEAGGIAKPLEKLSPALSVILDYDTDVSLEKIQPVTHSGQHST

Target: D-1 receptor (Rattus norvegicus, UniProt P18901)
Conditions: rat striatum; for potency in inhibiting [N-methyl-^3 H] Compound binding: competition curves

Row | Compound | potency in inhibiting [N-methyl-^3 H] Compound binding | Hill coefficient (slope of Hill plot) (competition with fixed concentration of [N-methyl-^3 H] Compound)
1 | CN1CCc2cc(Cl)c(O)cc2[C@H](c2ccccc2)C1 [S-isomer of Compound] | greatly reduced potency | 
2 | CN1CCc2cc(Cl)c(O)cc2[C@@H](c2ccccc2)C1 [Compound, R-(+)-8-chloro-2,3,4,5-tetrahydro-3-methyl-5-phenyl-1H-3-benzazepin-7-ol] | most potent | 1.02
